# The list shows a part of the results, in another mix than the full data. The source made the active and inactive calls. Cut-off not given; nearly all actives show AC50 up to about 14 µM.
# Test: AlphaScreen signal interference counter-screen, dose response, artefact control, biochemical, cherry-picked samples, luminescence (AID 720494)
# Settings: at 12 µM (top of the series)
smiles,measurement,value
CCC(c1nnnn1C1CCCCC1)N1CCC(n2c(=O)[nH]c3ccccc32)CC1 (stereo unspecified),"activity change, negative = inhibition",inactive: -28.8%
